Assay results reported in ChEMBL document CHEMBL6153085, “Discovery of N-(1,2,4-Thiadiazol-5-yl)benzo[b]oxepine-4-carboxamide Derivatives as Novel Antiresistance Androgen Receptor Antagonists” (J Med Chem, 2025).

What was measured:
[1] = biological target: T1, Mineralocorticoid receptor (Homo sapiens) (UniProt P08235); experiment: Agonist activity at Mineralocorticoid receptor (unknown origin); conditions: filed as agonist
T1 sequence (whole entry): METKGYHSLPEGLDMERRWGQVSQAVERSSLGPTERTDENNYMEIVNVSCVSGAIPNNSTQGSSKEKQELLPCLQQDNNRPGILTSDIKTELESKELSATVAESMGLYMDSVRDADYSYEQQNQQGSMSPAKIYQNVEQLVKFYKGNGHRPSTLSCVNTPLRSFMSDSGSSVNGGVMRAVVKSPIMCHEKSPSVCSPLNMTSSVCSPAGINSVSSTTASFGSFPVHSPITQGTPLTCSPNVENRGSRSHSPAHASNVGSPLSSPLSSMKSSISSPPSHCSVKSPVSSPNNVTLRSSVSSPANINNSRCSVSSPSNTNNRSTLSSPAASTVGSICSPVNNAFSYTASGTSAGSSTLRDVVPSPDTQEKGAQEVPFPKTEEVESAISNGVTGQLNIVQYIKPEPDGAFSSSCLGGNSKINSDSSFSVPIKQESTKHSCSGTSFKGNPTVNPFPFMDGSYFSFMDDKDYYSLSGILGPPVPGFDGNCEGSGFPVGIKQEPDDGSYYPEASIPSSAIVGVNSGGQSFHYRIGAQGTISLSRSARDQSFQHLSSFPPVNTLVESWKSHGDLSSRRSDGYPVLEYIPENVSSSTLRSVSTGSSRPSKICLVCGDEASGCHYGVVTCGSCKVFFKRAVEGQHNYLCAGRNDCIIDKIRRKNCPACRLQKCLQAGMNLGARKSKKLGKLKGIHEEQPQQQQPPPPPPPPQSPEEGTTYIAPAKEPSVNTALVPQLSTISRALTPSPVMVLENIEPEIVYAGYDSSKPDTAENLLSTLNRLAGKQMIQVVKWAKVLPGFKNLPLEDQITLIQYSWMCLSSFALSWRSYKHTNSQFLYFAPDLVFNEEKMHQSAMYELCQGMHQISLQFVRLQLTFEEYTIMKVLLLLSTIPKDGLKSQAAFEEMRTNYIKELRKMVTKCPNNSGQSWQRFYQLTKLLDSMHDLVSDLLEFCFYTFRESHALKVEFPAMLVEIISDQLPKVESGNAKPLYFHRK

NIH3T3 = experiment: Antiproliferative activity against mouse 3T3 cells at 50 uM incubated for 3 days by MTT assay relative to control; assay type: toxicity, cell-based; conditions: nih3t3, 72 h, time 3 day
[2] = biological target: T2, Progesterone receptor (Homo sapiens) (UniProt P06401); experiment: Antagonist activity at progesterone receptor (unknown origin)
T2 sequence (whole entry): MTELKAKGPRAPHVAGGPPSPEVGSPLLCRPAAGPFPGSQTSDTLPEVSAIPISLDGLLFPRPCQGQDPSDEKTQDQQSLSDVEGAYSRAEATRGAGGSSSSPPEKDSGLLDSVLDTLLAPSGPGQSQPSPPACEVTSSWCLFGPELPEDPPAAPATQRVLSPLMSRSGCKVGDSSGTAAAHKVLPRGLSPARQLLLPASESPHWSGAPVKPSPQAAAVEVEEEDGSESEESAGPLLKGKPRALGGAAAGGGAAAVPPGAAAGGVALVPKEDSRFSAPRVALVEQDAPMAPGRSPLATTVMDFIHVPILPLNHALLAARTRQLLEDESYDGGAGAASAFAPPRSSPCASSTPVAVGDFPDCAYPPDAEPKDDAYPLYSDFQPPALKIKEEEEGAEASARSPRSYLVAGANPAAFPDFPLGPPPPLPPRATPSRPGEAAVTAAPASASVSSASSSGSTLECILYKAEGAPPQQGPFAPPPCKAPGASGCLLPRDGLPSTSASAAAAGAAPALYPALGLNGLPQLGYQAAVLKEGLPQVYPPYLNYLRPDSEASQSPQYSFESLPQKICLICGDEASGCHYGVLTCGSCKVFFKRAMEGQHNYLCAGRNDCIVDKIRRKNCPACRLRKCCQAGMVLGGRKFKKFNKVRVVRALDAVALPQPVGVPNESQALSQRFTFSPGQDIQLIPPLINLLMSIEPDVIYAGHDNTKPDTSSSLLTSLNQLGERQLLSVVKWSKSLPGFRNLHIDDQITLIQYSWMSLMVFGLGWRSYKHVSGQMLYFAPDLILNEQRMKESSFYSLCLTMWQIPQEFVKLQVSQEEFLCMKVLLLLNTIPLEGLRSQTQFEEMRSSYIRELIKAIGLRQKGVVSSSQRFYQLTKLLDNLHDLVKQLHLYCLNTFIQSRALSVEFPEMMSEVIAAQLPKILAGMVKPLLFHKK

[3] = biological target: T1, Mineralocorticoid receptor (Homo sapiens); experiment: Antagonist activity at Mineralocorticoid receptor (unknown origin)
[4] = biological target: T2, Progesterone receptor (Homo sapiens); experiment: Agonist activity at progesterone receptor (unknown origin); conditions: filed as agonist
[5] = Toxicity in BALB/c mouse assessed as body weight loss at 40 mg/kg, po administered twice daily measured up to 25 days; assay type: organism-based; conditions: in vivo, 600 h, time < 25 day

Row | SMILES | Activity [1] | Activity (NIH3T3) [%] | Activity [2] | Activity [3] | Activity [4] | Activity [5]
1 | CC(=O)Cc1nsc(NC(=O)C2=COc3ccc(Cl)cc3C=C2)n1 | Minimal_effect | < 40 | inactive | inactive | Minimal_effect | 
2 | O=C(Nc1nc(CN2CCOCC2)ns1)C1=Cc2cc(Cl)ccc2OC=C1 |  |  |  |  |  | Non-toxic

Activity calls are given as the source filed them. The calls are words filed in the database; no cut-off is given here.
